# Assays:
# Type in all cases: in vitro ADME
# [1] = system: waxy cuticles of whole soybean leaves; assay: Franz cell leaf penetration of trans-3-Hexenoic acid, Triton X-100 (Example 13); settings: penetration ratio of trans-3-Hexenoic acid (1,500 ppm), prothioconazole 615 ppm (Proline) and Triton X-100 31.3 ppm where included, 24 hours
# Description: (§1) This ratio may be expressed based on:
# Such donor solutions comprised 615 ppm prothioconazole.
# (§2) The permeation period was 24 hours.
# [2] = system: waxy cuticles of whole soybean leaves; assay: Franz cell leaf penetration of trans-3-Hexenoic acid, Biosoft adjuvants (Example 1); settings: penetration ratio of trans-3-Hexenoic acid (1,500 ppm), prothioconazole 615 ppm (Proline) and adjuvant 1,000 ppm where included, 24 hours
# Description: as §1
# Certain donor solutions included an azole fungicide, namely prothioconazole. […] Such donor solutions comprised 615 ppm prothioconazole. […] In this example, the adjuvants tested were non-ionic surfactants comprising C11 linear alcohol ethoxylates (available from Stepan Company of Northfield, IL as Biosoft® N1-5, Biosoft® N1-7, and Biosoft® N1-9).
# as §2
# [3] = system: waxy cuticles of whole soybean leaves; assay: Franz cell leaf penetration of prothioconazole, Agral 90 (Example 10); settings: penetration ratio of prothioconazole (615 ppm, Proline), trans-3-Hexenoic acid 1,500 ppm and Agral 90 31.1 ppm where included, 24 hours
# Description: as §1
# (§3) Several donor solutions were prepared to assess penetration of an azole fungicide, namely prothioconazole, across waxy cuticles of whole soybean leaves. […] Such donor solutions comprised 615 ppm prothioconazole. Certain donor solutions included 1,500 ppm trans-3-Hexenoic acid.
# as §2
# [4] = system: waxy cuticles of whole soybean leaves; assay: Franz cell leaf penetration of prothioconazole, Biosoft adjuvants (Example 9); settings: penetration ratio of prothioconazole (615 ppm, Proline), trans-3-Hexenoic acid 1,500 ppm and Biosoft adjuvant 1,000 ppm where included, 24 hours
# Description: as §1
# Several donor solutions were prepared to assess penetration of an azole fungicide active ingredient, namely prothioconazole, across waxy cuticles of whole soybean leaves. […] Such donor solutions comprised 615 ppm prothioconazole. Certain donor solutions included an aliphatic acid, namely trans-3-Hexenoic acid. Such donor solutions comprised 1,500 ppm trans-3-Hexenoic acid. […] In this example, the adjuvants tested were non-ionic surfactants comprising C11 linear alcohol ethoxylates (available from Stepan Company of Northfield, IL as Biosoft® N1-5, Biosoft® N1-7, and Biosoft® N1-9).
# as §2
# [5] = system: waxy cuticles of whole soybean leaves; assay: Franz cell leaf penetration of prothioconazole, Triton X-100 (Example 12); settings: penetration ratio of prothioconazole (615 ppm, Proline), trans-3-Hexenoic acid 1,500 ppm and Triton X-100 31.3 ppm where included, 24 hours
# Description: as §1, §3, §2
Structure (SMILES),Aliphatic Acid Penetration [1] [%],Aliphatic Acid Penetration [2] [%],Pesticidal Active Ingredient Penetration [3] [%],Pesticidal Active Ingredient Penetration [4] [%],Pesticidal Active Ingredient Penetration [5] [%]
CC/C=C/CC(=O)O [trans-3-Hexenoic acid],13.7,13.7,–,–,–
"OC(Cc1ccccc1Cl)(Cn1nc[nH]c1=S)C1(Cl)CC1 (centres unmarked) [Prothioconazole, prothioconazole]",–,–,1.1,2.5,0.7
